{
  "source": "PubChem BioAssay AID651718",
  "about": "(The Scripps Research Institute Molecular Screening Center, 2012)",
  "note": "Only a part is listed here, and it is no random draw. The source made the active and inactive calls. Rule as the data show it: active = inhibition above about 4.5%; inactive = the rest.",
  "data": [
    {"test_system": "Methionine sulfoxide reductase A (Bos taurus)", "test": "inhibition of methionine sulfoxide reductase A – biochemical, absorbance, bovine, HTS, primary screen (AID 651718);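 also: 0% = vehicle wells with enzyme and 100% = reference inhibitor wells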", "conditions": "purified bovine MsrA, absorbance read-out; at 15.5 µM; active compounds read high", "values": [
      {"smiles": "CC(=O)Nc1ccc(Oc2c([N+](=O)[O-])cc([N+](=O)[O-])cc2[N+](=O)[O-])cc1", "inhibition": "active: 4.83%"},
      {"smiles": "CC(=O)Nc1ccc([As](=O)(O)O)c(O)c1", "inhibition": "inactive: -0.49%"},
      {"smiles": "C[C@H]1OP(=O)(Oc2ccccc2)C[C@@H]2O[C@@H]21", "note": "(stereo not given in full)", "inhibition": "inactive: 0.45%"},
      {"smiles": "C[C@@H]1C=CCP(=O)(Oc2ccccc2)O1", "note": "(stereo not given in full)", "inhibition": "inactive: 0.53%"},
      {"smiles": "Cc1ccccc1CN(C)C(=O)COC(=O)C(O)(c1ccccc1)c1ccccc1", "inhibition": "inactive: 0.72%"},
      {"smiles": "COC(=O)C1(C)COP(=O)(NCc2ccccc2)OC1", "note": "(stereo not given)", "inhibition": "inactive: 0.49%"},
      {"smiles": "CC(=O)c1ccc(N2CC2c2ccncc2)cc1", "note": "(stereo not given)", "inhibition": "inactive: 2.15%"},
      {"smiles": "N#C/C(=C\\c1ccc(N(CCBr)CCBr)cc1)C(N)=O", "inhibition": "inactive: 0.4%"},
      {"smiles": "CC(C)(C)C(=O)NC(Sc1ccccc1)C(Cl)(Cl)Cl", "note": "(stereo not given)", "inhibition": "inactive: -0.41%"},
      {"smiles": "CCc1cc(O)c([N+](=O)[O-])c(C)c1[N+](=O)[O-]", "inhibition": "inactive: 0.31%"},
      {"smiles": "CCOc1ccc(C2=NCC(CBr)S2)cc1", "note": "(stereo not given)", "inhibition": "inactive: -1.37%"},
      {"smiles": "O=P1(Nc2nc3ccc(Cl)cc3s2)COc2ccccc2O1", "note": "(stereo not given)", "inhibition": "inactive: 2.42%"},
      {"smiles": "O=c1c2cc([N+](=O)[O-])ccc2[nH]c2c([N+](=O)[O-])cc([N+](=O)[O-])cc12", "inhibition": "inactive: 1.64%"},
      {"smiles": "CN(C)C(=O)Oc1noc2ccccc12", "inhibition": "inactive: -0.93%"},
      {"smiles": "CC(NC(=O)COC(=O)C(O)(c1ccccc1)c1ccccc1)c1ccccc1", "note": "(stereo not given)", "inhibition": "inactive: -0.85%"},
      {"smiles": "Cc1ccccc1OP(=O)(Nc1ccccn1)Oc1ccccc1C", "inhibition": "inactive: 1.31%"},
      {"smiles": "CCC(=O)N1C2C3N(C(=O)CC)C1C1N(C(=O)CC)C(C(N1C(=O)CC)N3C(=O)CC)N2C(=O)CC", "inhibition": "inactive: -0.25%"},
      {"smiles": "O=C(OC1CN2CCC1CC2)c1ccccc1", "note": "(stereo not given)", "inhibition": "inactive: 0.3%"},
      {"smiles": "CC(=O)NC(SC(=S)N(CC(C)C)CC(C)C)C(Cl)(Cl)Cl", "note": "(stereo not given)", "inhibition": "inactive: -1.2%"},
      {"smiles": "Cc1ccc(OP(=O)(Nc2ccccn2)Oc2ccc(C)cc2)cc1", "inhibition": "inactive: 0.04%"},
      {"smiles": "COC(=O)c1cc2c(s1)N=C(c1ccccc1)N(C)P2(=O)N1CCOCC1", "note": "(stereo not given)", "inhibition": "inactive: 2%"},
      {"smiles": "O=P1(N(CCCl)CCCl)OCCC2CCCCN21", "note": "(stereo not given)", "inhibition": "inactive: -0.35%"},
      {"smiles": "Cc1ccc(NP(=O)(Oc2cccc(C)c2)Oc2cccc(C)c2)nc1", "inhibition": "inactive: -0.54%"},
      {"smiles": "c1ccc(-c2nn[nH]n2)c(-c2nn[nH]n2)c1", "inhibition": "inactive: -0.35%"},
      {"smiles": "CCNC(=S)/N=C(\\N)N[N+](=O)[O-]", "inhibition": "inactive: 1.58%"},
      {"smiles": "O=C(NC1CCS(=O)(=O)C1)NP(=S)(Oc1ccccc1)Oc1ccccc1", "note": "(stereo not given)", "inhibition": "inactive: 1.39%"},
      {"smiles": "O=C(OC1CN2CCC1CC2)c1cccc(Cl)c1", "note": "(stereo not given)", "inhibition": "inactive: 0.42%"},
      {"smiles": "C(Cc1nn[nH]n1)Cc1nn[nH]n1", "inhibition": "inactive: -1.38%"},
      {"smiles": "Nc1ccc([As](=O)(O)c2ccc([N+](=O)[O-])cc2)cc1", "inhibition": "inactive: -0.31%"},
      {"smiles": "C/C(N)=N\\P(=O)(OCc1ccccc1)OCc1ccccc1", "inhibition": "inactive: -0.7%"},
      {"smiles": "O=[As](O)(c1ccccc1)c1ccc(O)cc1", "inhibition": "inactive: 0.49%"},
      {"smiles": "CC(=O)NC(SC(=S)N(C)C)C(Cl)(Cl)Cl", "note": "(stereo not given)", "inhibition": "inactive: -1.29%"},
      {"smiles": "O=[N+]([O-])c1ncn(CCn2cnc([N+](=O)[O-])n2)n1", "inhibition": "inactive: 0%"},
      {"smiles": "C[C@H]1OP(=O)(Oc2ccccc2)[C@H](O)[C@H](O)[C@H]1N=[N+]=[N-]", "note": "(stereo not given in full)", "inhibition": "inactive: -1.24%"},
      {"smiles": "O=P(Nc1nc2ccccc2s1)(c1ccccc1)c1ccccc1", "inhibition": "inactive: 0.92%"},
      {"smiles": "O=P(Nc1ccccn1)(c1ccc(Br)cc1)c1ccc(Br)cc1", "inhibition": "inactive: 2.14%"},
      {"smiles": "CN(C)C1(CNC(=O)c2ccc(Cl)c(S(N)(=O)=O)c2)CCCCC1", "inhibition": "inactive: -0.52%"},
      {"smiles": "COc1ccc(N)c([N+](=O)[O-])c1[N+](=O)[O-]", "inhibition": "inactive: 0.13%"},
      {"smiles": "Nc1ccc(CCCCOc2ccccc2)cc1", "inhibition": "active: 4.78%"},
      {"smiles": "c1nnnn1CCn1cnnn1", "inhibition": "inactive: -1.74%"},
      {"smiles": "CC(C)C(=O)NC(Sc1ccccc1)C(Cl)(Cl)Cl", "note": "(stereo not given)", "inhibition": "inactive: 1.84%"},
      {"smiles": "O=P(Nc1nccs1)(c1ccccc1)c1ccccc1", "inhibition": "inactive: -0.5%"},
      {"smiles": "CC1CCN(C(=O)Oc2c(Cl)cc(Cl)c3cccnc23)CC1", "inhibition": "inactive: -0.42%"},
      {"smiles": "c1cc(-c2nn[nH]n2)ccc1-c1nn[nH]n1", "inhibition": "inactive: -0.63%"},
      {"smiles": "CN(C)C(=O)OCCc1n(C)cc[n+]1C", "inhibition": "inactive: -0.75%"},
      {"smiles": "CC(C)c1nc(Nc2ccccc2)n(P(=O)(N(C)C)N(C)C)n1", "inhibition": "inactive: 0.13%"},
      {"smiles": "CC(C)=N/N=C(\\N)N[N+](=O)[O-]", "inhibition": "inactive: -2.14%"},
      {"smiles": "CCN(/C(=N/P(=O)(N1CCOCC1)N1CCOCC1)N1CCOCC1)c1ccc(OC)cc1", "inhibition": "inactive: 0.24%"},
      {"smiles": "C[N+]1=C2C=CC=CC=C2SC12C([N+](=O)[O-])=CC([N+](=O)[O-])=C[C-]2[N+](=O)[O-]", "note": "(stereo not given)", "inhibition": "inactive: 1.56%"},
      {"smiles": "Nc1ccc([As](=O)(O)c2ccc(N)cc2)cc1", "inhibition": "inactive: 0.9%"},
      {"smiles": "CCc1nc2c(n1)c1c(non1O)c1c2no[n+]1[O-]", "inhibition": "inactive: 1.02%"},
      {"smiles": "O=[N+]([O-])c1cc([N+](=O)[O-])c(CCNc2ccccc2)c([N+](=O)[O-])c1", "inhibition": "inactive: 3.39%"},
      {"smiles": "Cc1ccc(NP(=O)(Oc2ccccc2)Oc2ccccc2)nc1", "inhibition": "inactive: 0%"},
      {"smiles": "O=[N+]([O-])c1cccc2n[nH]nc12", "inhibition": "inactive: 2.26%"},
      {"smiles": "CC(=O)N1C2C3N(C(C)=O)C1C1N(C(C)=O)C(C(N1C(C)=O)N3C(C)=O)N2C(C)=O", "inhibition": "inactive: 0.2%"},
      {"smiles": "COc1ccc(C2=NCC(CBr)S2)cc1", "note": "(stereo not given)", "inhibition": "inactive: -0.69%"},
      {"smiles": "O=C(O)CNc1ccc([As](=O)(O)O)cc1", "inhibition": "inactive: -0.1%"},
      {"smiles": "COC(=O)C1(C)COP(=O)(Nc2ccccc2)OC1", "note": "(stereo not given)", "inhibition": "inactive: 0.57%"},
      {"smiles": "O=[N+]([O-])c1cccc(NC2=NCC(CBr)S2)c1", "note": "(stereo not given)", "inhibition": "inactive: 0.17%"},
      {"smiles": "O=[N+]([O-])c1ncn(CCn2ncnc2[N+](=O)[O-])n1", "inhibition": "inactive: 1.13%"},
      {"smiles": "CC(C)(C)C(=O)NC(Sc1ccncn1)C(Cl)(Cl)Cl", "note": "(stereo not given)", "inhibition": "inactive: 0.82%"},
      {"smiles": "O=C(Nc1cc([As](=O)(O)O)ccc1O)c1ccccc1", "inhibition": "inactive: 0.05%"},
      {"smiles": "O=P1(N(CCCl)CCCl)OCCCS1", "note": "(stereo not given)", "inhibition": "inactive: -0.58%"},
      {"smiles": "Nc1cccc2ccc([As](=O)(O)O)cc12", "inhibition": "inactive: 1.63%"},
      {"smiles": "CCN(N=Nc1nonc1N)c1nonc1N", "inhibition": "inactive: 2.64%"}
    ]}
  ]
}
